In one series the target is Human LBAT (Homo sapiens, UniProt Q14973). Kind of series: LBAT (h/m) assay, human LBAT-overexpressing cells, 3H-taurocholic acid uptake. As to conditions: read-out: hLBAT IC50, 0.3 μM 3H-taurocholic acid and 7.5 μM cold taurocholic acid, 20 minutes.
For another series, the target named is Human IBAT (Homo sapiens, UniProt Q12908). Kind of series: IBAT (h/m) assay, human IBAT-overexpressing cells, 3H-taurocholic acid uptake. As to conditions: read-out: hIBAT IC50, 0.25 μM 3H-taurocholic acid and 5 μM cold taurocholic acid, 20 minutes, highest test concentration 10 μM.
Another series relates to Caco-2 cells. The series is described as follows: Bidirectional permeability assay (Caco-2 cells). As to conditions: 10 μM in FaSSIF buffer, 120 minutes; for Permeability (Caco-2) Papp A2B: absorptive direction (A2B); for Permeability (Caco-2) Papp B2A: secretory direction (B2A). On the technique in general: Passage across Caco-2 layers is used to estimate intestinal permeability.

Sequences of proteins named here, by UniProt entry; tags and fusion partners are left off.
UniProt Q14973, whole entry: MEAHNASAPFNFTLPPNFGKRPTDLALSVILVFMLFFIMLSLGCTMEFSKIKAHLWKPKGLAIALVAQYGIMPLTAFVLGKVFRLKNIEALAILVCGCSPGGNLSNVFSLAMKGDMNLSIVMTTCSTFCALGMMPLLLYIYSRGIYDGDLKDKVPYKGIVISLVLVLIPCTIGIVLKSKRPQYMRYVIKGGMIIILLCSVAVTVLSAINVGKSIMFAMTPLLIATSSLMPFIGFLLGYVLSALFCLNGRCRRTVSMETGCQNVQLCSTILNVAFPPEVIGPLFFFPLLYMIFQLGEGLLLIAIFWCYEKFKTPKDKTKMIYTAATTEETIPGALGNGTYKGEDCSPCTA
UniProt Q12908, whole entry: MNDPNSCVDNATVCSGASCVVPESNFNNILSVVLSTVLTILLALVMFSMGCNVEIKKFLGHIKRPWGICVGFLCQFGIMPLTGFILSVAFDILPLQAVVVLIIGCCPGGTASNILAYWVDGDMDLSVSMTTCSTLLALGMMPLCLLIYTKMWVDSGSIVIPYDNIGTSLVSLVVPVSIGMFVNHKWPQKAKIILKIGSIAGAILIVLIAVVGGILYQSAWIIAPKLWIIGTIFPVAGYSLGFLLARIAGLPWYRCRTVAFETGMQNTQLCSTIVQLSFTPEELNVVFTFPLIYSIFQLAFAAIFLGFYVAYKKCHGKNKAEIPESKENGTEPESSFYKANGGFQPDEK

The next series is described as follows: Bioavailability studies. As to conditions: single intravenous dose 1 mg/kg and single oral dose 10 mg/kg; species per compound not given.

This is an account of results in patent US12365658B2, “Benzothia(di)azepine compounds and their use as bile acid modulators” (Albireo AB, priority 2021, dated 2025).

SMILES strings stand for the structures.

For the molecule `CCCCC1CN(c2ccc(F)cc2)c2cc(SC)c(OCC3(C(=O)O)CC3)cc2S(=O)(=O)N1C` (single isomer, unassigned) [12, enantiomer 2], the IC50 on Human LBAT stood at 8.5 nM. The IC50 on Human IBAT amounted to 96 nM. In the series on Caco-2 cells, the “Permeability (Caco-2) Papp A2B” value was 12.9 ×10⁻⁶ cm/s and the “Permeability (Caco-2) Papp B2A” value was determined as 9.1 ×10⁻⁶ cm/s. In addition, the Bioavailability in “Bioavailability studies” is 33%.
Consider `CCCCC1CN(c2ccccc2)c2cc(SC)c(OCC(F)(F)C(=O)O)cc2S(=O)(=O)N1C` (single isomer, unassigned), for which the IC50 came out at 0.6 nM on Human LBAT and 203 nM at Human IBAT.
The corresponding values for `CCCCC1CN(c2ccc(F)cc2)c2cc(SC)c(OCC3(C(=O)O)CC3)cc2S(=O)(=O)N1` (single isomer, unassigned) [17, enantiomer 2] are 131 nM and 1250 nM.
With `CCCCC1CN(c2ccc(F)cc2)c2cc(SC)c(OCC3(C(=O)O)CC3)cc2S(=O)(=O)N1` (single isomer, unassigned) [17, enantiomer 1], the results for the IC50 on Human LBAT and on Human IBAT were 2.8 nM and 234 nM, respectively. Besides, in the series on Caco-2 cells, the “Permeability (Caco-2) Papp A2B” value came out at 7.7 ×10⁻⁶ cm/s. In addition, in the series with Caco-2 cells, the “Permeability (Caco-2) Papp B2A” value is 10.6 ×10⁻⁶ cm/s. The Bioavailability in the series “Bioavailability studies” amounted to 11%.
Regarding `CCCCC1CN(c2ccc(F)cc2)c2cc(SC)c(OCC(C)(C)C(=O)O)cc2S(=O)(=O)N1C` (single isomer, unassigned) [14, enantiomer 2], the results for the IC50 at Human LBAT and at Human IBAT were 918 nM and 1950 nM, respectively.
The corresponding values for `CCCCC1CN(c2ccc(F)cc2)c2cc(SC)c(OCC3(C(=O)O)CC3)cc2S(=O)(=O)N1C` (single isomer, unassigned) [12, enantiomer 1] are 9.4 nM and 3010 nM.
As for `CCCCC1CN(c2ccc(F)cc2)c2cc(SCC)c(OCC3(C(=O)O)CC3)cc2S(=O)(=O)N1` (single isomer, unassigned), the figures for the IC50 at Human LBAT and on Human IBAT were 1.3 nM and 274 nM, respectively. Further, the “Permeability (Caco-2) Papp A2B” value in the series with Caco-2 cells stood at 7.2 ×10⁻⁶ cm/s. Further, in the series on Caco-2 cells, the “Permeability (Caco-2) Papp B2A” value is 7 ×10⁻⁶ cm/s.
